This is an account of results in PMC8915830 (Proceedings of the National Academy of Sciences of the …, 2022).

Amino acid sequences for entries named in this document (tags omitted).
UniProt Q92847, whole entry: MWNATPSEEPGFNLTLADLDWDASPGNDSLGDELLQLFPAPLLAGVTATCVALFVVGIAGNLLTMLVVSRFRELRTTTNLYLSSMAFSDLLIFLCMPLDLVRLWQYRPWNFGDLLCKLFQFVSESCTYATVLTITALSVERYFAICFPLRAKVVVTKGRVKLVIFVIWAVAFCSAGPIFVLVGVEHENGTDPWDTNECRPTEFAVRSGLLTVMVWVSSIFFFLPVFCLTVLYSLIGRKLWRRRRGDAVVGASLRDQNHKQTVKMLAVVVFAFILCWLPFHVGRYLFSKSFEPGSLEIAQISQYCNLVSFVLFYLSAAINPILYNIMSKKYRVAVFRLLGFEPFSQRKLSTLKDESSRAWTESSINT

In the experiment the target is hGHSR1aWT (Homo sapiens, UniProt Q92847). The experiment in a line: Gαq/11-dependent intracellular Ca2+ mobilization. In kind it is cell-based. The following applies: 30 min antagonist pretreatment.

In the case of JMV2959, the “inhibition of iCa2+ evoked by EC80 N8279, ghrelin or L585” value was “competitively inhibited”.
